Measured values published in patent US20030022938A1, “N-fatty acid-amino acid conjugates and therapeutic uses” (priority 2001, published 2003).
“Also recorded” adds a separate entry of the source.

By UniProt entry, the sequences of proteins in these tests, tags left out.
UniProt O00519, whole entry: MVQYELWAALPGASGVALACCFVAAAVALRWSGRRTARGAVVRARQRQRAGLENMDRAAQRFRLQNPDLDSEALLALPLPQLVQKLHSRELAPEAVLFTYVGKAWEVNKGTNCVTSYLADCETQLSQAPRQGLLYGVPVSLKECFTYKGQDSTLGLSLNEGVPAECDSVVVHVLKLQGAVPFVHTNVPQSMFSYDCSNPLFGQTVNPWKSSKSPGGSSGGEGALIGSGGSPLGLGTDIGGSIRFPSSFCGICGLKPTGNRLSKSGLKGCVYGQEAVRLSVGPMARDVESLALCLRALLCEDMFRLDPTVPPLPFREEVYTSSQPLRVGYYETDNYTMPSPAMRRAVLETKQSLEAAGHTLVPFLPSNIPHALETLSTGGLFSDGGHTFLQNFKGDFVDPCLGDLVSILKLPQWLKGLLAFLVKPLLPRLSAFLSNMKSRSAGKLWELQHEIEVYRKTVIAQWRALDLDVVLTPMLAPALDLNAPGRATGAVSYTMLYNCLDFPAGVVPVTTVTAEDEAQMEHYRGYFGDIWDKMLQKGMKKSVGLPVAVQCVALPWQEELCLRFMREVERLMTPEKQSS
UniProt P21554, whole entry: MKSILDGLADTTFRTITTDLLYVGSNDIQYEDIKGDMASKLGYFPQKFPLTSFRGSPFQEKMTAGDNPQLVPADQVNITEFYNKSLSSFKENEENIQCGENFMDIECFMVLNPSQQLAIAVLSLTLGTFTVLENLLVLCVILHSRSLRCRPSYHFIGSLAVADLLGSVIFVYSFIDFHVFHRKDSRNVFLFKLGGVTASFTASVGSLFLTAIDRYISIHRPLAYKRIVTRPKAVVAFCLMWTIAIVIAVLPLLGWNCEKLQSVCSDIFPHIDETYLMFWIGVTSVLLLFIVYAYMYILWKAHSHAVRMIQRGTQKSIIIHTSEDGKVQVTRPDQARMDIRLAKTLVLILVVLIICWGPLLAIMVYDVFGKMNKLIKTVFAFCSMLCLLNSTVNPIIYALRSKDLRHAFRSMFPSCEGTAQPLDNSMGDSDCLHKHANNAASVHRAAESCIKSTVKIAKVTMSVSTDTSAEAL

Key:
FAAH = FAAH (Homo sapiens, UniProt O00519); assay: Hydrolysis by FAAH; assay type: in vitro ADME
[1] = target: cannabinoid CB 1 receptors (Homo sapiens, UniProt P21554); conditions: cited from earlier work
Stability in vivo = conditions: compared with anandamide
[2] = Blood levels of NAGly in rats after oral administration; assay type: in vivo; conditions: 10 mg/kg oral
[3] = test system: formalin-induced pain behavior; assay: Formalin test for pain reduction; conditions: drug-treated rats
Description: Rats received intraplantar injections of formalin in the hindpaw, and pain behavior consisting of lifting and licking of the injected paw was observed. Drug or co-vehicle was coinjected with the formalin solution (4.5% formalin in 10% DMSO, 100μl, s.c., ipl.).

human T-lymphocytes = assay: PHA stimulated T-cell proliferation (BrDU incorporation); assay type: cell-based; conditions: 0.1-10 mM, PHA 10 ng/ml, 72 hours
Description: Isolated human T-lymphocytes (5×10^5 ) were cultured in 96 well microtiter plates and treated with NAGly or DMSO for 60 minutes. The cells were then stimulated with PHA (10 ng/ml) and incubated for 72 hours. A control set treated with NAGly/DMSO not stimulated with PHA was incubated in parallel. Cell numbers were determined by measuring BrDU incorporation for 24 hours. The values shown (see “PRO[…]” on the y-axis) are the ratios of the optical density readings from treated and control cells.
Cell proliferation in vitro was measured by incorporation of 5-bromo-2′-deoxyuridine (BrDU) instead of thymidine into the DNA of proliferating cells. In these experiments, isolated T-lymphocytes were treated with NAGly or vehicle (DMSO) for 60 minutes in RPMI containing 2% autologous serum. Cells (2×10^5 per well) were then cultured in 96 well, flat bottomed microtiter plates and stimulated with PHA (10 ng/ml) or not stimulated. Cultures were maintained for 72 hours in a standard cell incubator at 37° C. […] Anti-BrDU-peroxidase was added and the immune complex was detected by substrate (tetramethylbenzidine) reaction. The reaction was stopped with […] sulfuric acid (1N) and the product was quantified by measuring the absorbance at 492 nm with reference at 650 nm. Absorbance correlated directly to the amount of DNA synthesis, and, thereby, to the number of proliferating cells in each culture.

Substance: N-arachidonyl glycine [NAGly]
- hydrolysis by FAAH (FAAH): only slowly hydrolyzed by FAAH
- affinity for cannabinoid CB 1 receptors [1]: lack affinity
- stability in vivo (Stability in vivo): greater stability than anandamide in vivo
- blood levels of NAGly [2]: 60 to 80 nM
- behavioral abnormality [3]: No behavioral abnormality was observed
- proliferation of PHA stimulated T-cells (proliferation index) (human T-lymphocytes): only inhibitory; also recorded: inhibitory in a dose-related fashion
